Results taken from BindingDB's records for doi:10.1016/j.bioorg.2017.02.010 (Charles University, 2017).

The chains behind the UniProt entries cited, without tags or fusion partners.
UniProt Q9N1N9, whole entry: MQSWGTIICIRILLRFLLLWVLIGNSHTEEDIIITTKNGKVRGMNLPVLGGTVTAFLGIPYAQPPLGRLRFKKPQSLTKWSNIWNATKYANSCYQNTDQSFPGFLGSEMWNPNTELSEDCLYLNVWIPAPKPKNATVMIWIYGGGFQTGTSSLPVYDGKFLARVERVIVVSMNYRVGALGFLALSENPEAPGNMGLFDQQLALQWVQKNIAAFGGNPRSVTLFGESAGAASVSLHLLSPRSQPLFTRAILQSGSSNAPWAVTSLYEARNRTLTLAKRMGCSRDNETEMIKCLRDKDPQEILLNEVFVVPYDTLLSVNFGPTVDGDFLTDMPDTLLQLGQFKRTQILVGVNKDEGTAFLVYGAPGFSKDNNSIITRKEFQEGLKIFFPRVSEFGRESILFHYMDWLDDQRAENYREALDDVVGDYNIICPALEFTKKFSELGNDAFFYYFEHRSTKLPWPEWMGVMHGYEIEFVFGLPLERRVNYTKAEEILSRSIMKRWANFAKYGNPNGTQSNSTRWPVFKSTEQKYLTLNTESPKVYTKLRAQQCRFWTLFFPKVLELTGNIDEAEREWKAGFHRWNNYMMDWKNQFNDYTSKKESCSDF

Target: Carboxylic ester hydrolase (Equus caballus, UniProt Q9N1N9)
Assay: Cholinesterase Inhibition Assay
Experimental: The IC50 values were determined using the spectrophotometric Ellman's method. All of the tested compounds were dissolved in 0.01 M DMSO and then diluted in demineralised water to 0.001 M and 0.0001 M. Acetylcholinesterase was obtained from electric eel (Electrophorus electricus L.) and butyrylcholinesterase was fromequine serum. Rivastigmine and galantamine were involved as reference drugs.

SMILES: CCN(C)C(=O)Oc1cccc([C@H](C)N(C)C)c1 [3-[(1S)-1-(dimethylamino)ethyl]phenyl N-ethyl-N-methylcarbamate]
- IC50: 38.4 µM
